Measurements published in patent US7041694B1, “Cyclooxygenase-2 inhibition” (Cornell Research Foundation, Inc., priority 1997, dated 2006).

System: patient with chronic viral hepatitis C
Conditions: 6 mg/kg oral daily for 12 months, with subcutaneous interferon alpha-2b 3 MU three times a week for six months

For NS(=O)(=O)c1ccc(-n2nc(C(F)(F)F)cc2-c2ccc(Cl)cc2)cc1 [4-[5-(4-Chlorophenyl)-3-(trifluoromethyl)-1H-pyrazol-1-yl]benzenesulfonamide], the liver enzymes was “sustained normalization of liver enzymes”.
